Consider two molecules from publication PMC3467217, “A Potent Class of GPR40 Full Agonists Engages the EnteroInsular Axis to Promote Glucose Control in Rodents” (PLoS ONE, 2012).

Chains of the proteins cited; added tags and fusions are not shown.
UniProt O14842, whole entry: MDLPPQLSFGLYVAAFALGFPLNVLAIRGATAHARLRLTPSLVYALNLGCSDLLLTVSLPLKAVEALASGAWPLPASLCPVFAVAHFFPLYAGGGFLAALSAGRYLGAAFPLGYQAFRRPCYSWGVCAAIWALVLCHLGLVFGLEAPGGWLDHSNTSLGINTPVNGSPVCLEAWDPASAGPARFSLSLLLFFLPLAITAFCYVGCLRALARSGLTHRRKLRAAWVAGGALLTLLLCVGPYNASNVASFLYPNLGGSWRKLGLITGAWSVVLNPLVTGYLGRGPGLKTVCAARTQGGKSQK

The assay deals with GPR40 (Homo sapiens, UniProt O14842). Put plainly: Aequorin Ca2+ flux assay in CHO cell line stably expressing GPR40. Format: cell-based. Particulars: CHO-GPR40 stable cell line; for Emax (efficacy): compared to natural free fatty acid ligands. For orientation: A change in cytosolic calcium serves as a functional read-out for many receptors and channels.

Structures are written as SMILES.

Turning to `CC#C[C@@H](CC(=O)O)c1ccc(OCc2ccc(-c3cccc(OC)c3)cc2)cc1` (racemic), the “Emax (efficacy)” value came out at 30%. Turning to `CC#C[C@H](CC(=O)O)c1ccc(OCc2ccc(-c3cccc(OC)c3)cc2)cc1` (racemic), the EC50 (usually the concentration that produces a half-maximal response) was found to be 3.8 µM and the “Emax (efficacy)” value is given as 98%.
